Several values for one entry are separate records, joined by “and”; a condition that tells them apart may be missing. Identical values can stand only once. Counter-ions that a name gives are not always drawn. Like-named read-outs stand apart in the source and are kept apart here.
Legend:
[1] = biological target: Serotonin (5-Hydroxytryptamine) 5-HT3 (Homo sapiens, UniProt P46098); assay: LeadProfilingScreen: Serotonin 5-HT3; format: binding
Estrogen ERα = Estrogen ERα (Homo sapiens, UniProt P03372); assay: LeadProfilingScreen: Estrogen ERα; format: binding
[2] = biological target: Nicotinic Acetylcholine α1, Bungarotoxin (Homo sapiens, UniProt P02708+P07510+Q07001); format: binding; details: 10 μM
Opiate κ (OP2, KOP) = Opiate κ (OP2, KOP) (Homo sapiens, UniProt P41145); assay: LeadProfilingScreen: Opiate κ (OP2, KOP); format: binding
Adrenergic α1D = Adrenergic α1D (Homo sapiens, UniProt P25100); assay: LeadProfilingScreen: Adrenergic α1D; format: binding
[3] = Pharmacokinetics after intraperitoneal administration; format: in vivo; details: male, ICR, mouse, plasma, 5 mg/kg, 5 mg/kg IP, at one hour
Protocol: (§1) Male ICR mice weighed (29–33 g) were obtained from BioLASCO (Taiwan Co., Ltd., Ilan, Taiwan). The animal studies were performed according to NHRI institutional animal care and committee-approved procedures. Food and water were available ad libitum throughout the experiment. A single 5.0 mg/kg dose of CN016 was dissolved in normal saline and was separately administered to mice intravenously. The groups consisted of three mice for each time point. At times 0.03, 0.08, 0.25, 0.5, 1, 2, 4, 6, 8, 16, and 24 h after dosing, blood was collected from groups of three mice at each time point by cardiac puncture. Plasma was separated from blood and stored in a freezer (−80 °C) before LC/MS/MS analysis. In addition, pharmacokinetic analysis of CN016 following intraperitoneal administration (IP, 5 mg/kg) is provided in Figure S2 (Supporting Information).
Figure S2. Pharmacokinetic profiles of CN016 (5 mg/kg) after intraperitoneal administration. (A) Plasma concentration-time profiles of the CN016 after intraperitoneal injection of a 5 mg/kg dose. Red Circle: a drug concentration of 10 nM.
Blue Triangle: a drug concentration of 1000 nM. (B) Pharmacokinetic parameter of CN016 after intraperitoneal administration.
The pharmacokinetics of CN016 after IP administration (5 mg/kg) is illustrated in Figure S2. […]

Sodium Channel, Site 2 = assay: LeadProfilingScreen: Sodium Channel, Site 2; format: binding, rat; details: 10 μM
[4] = Pharmacokinetics after intravenous injection; format: in vivo; details: male, mouse, plasma, 5 mg/kg IV, ICR mice, mean ± SD (n = 3)
Protocol: as §1

Glutamate, Kainate = assay: LeadProfilingScreen: Glutamate, Kainate; format: binding, rat; details: 10 μM
Adrenergic α1B = Adrenergic α1B (Homo sapiens, UniProt P35368); assay: LeadProfilingScreen: Adrenergic α1B; format: binding
[5] = tested on: paclitaxel-induced neuropathy in C57BL/6 mice; assay: von Frey filament test (mechanical) in paclitaxel-induced neuropathy; format: in vivo, mouse
Protocol: Three behavioral models of paclitaxel-induced neuropathy were used to verify the neuroprotective effect of CN016. Namely, thermal and mechanical nociceptive reactions described below were evaluated by tail immersion and von Frey filament tests, respectively, and motor coordination was assessed with the rotarod performance test (Supporting Information, Figure S1A,B). To mimic the clinical therapeutic regimen, CN016 (5, 10 and 20 mg/kg) was administrated to 7-week-old female C57BL/6 mice by intraperitoneal injection (IP) 1 h prior to each injection of paclitaxel (4.5 mg/kg) on four alternate days (days 1, 3, 5, and 7). Each test’s basal level was recorded before treatment, and additional sessions of behavior tests were performed weekly for five weeks (Figure 4A).
The baseline of every neurological behavior test was measured in 6-week-old C57BL/6J female mice prior to treatment. […] Mechanical hyperalgesia was evaluated by using von Frey filament (#2390, IITC Inc., USA), thermal sensitivity was determined by the tail immersion assay (water temperature: 48–49 °C), and motor coordination was assessed by rotarod (#7750, Ugo Basile Biological Research Apparatus, Italy). After the first drug implantation, the body weight was recorded every 6 days throughout the entire experiment.

Opiate δ1 (OP1, DOP) = Opiate δ1 (OP1, DOP) (Homo sapiens, UniProt P41143); assay: LeadProfilingScreen: Opiate δ1 (OP1, DOP); format: binding
Dopamine D2S = Dopamine D2S (Homo sapiens, UniProt P14416); assay: LeadProfilingScreen: Dopamine D2S; format: binding

Compound: O=P(O)(O)CCN1CCC(Nc2cc(N3CCOCC3)nc(NCc3cn(CCCO)nn3)n2)CC1 [CN016, {2-[4-(2-{[1-(3-Hydroxy-propyl)-1H-[1,2,3]triazol-4-ylmethyl]-amino}-6-morpholin-4-yl-pyrimidin-4-ylamino)-piperidin-1-yl]-ethyl}-phosphonic Acid Hydrobromide Salt]
- inhibition at 10 µM [1]: -1%
- inhibition at 10 µM (Estrogen ERα): -17%
- Inhibition (%), Nicotinic Acetylcholine α1, Bungarotoxin [2]: 7%
- Inhibition (%), Nicotinic Acetylcholine α1, Bungarotoxin ([2]; listed as CN168, 10 µM): -6%
- inhibition at 10 µM (Opiate κ (OP2, KOP)): 3%
- inhibition at 10 µM (Adrenergic α1D): -6%
- concentration at 1 h [3]: 58 ng/mL and 84.4 nM
- Inhibition (%), Sodium Channel, Site 2 (Sodium Channel, Site 2): -1%
- AUC(0-t) at 24 h [4]: 6980 ± 1850 ng·h/mL
- clearance at 24 h [4]: 12.8 ± 2.9 mL/min/kg
- half-life at 24 h [4]: 12.8 ± 3.4 h
- Vd at 24 h ([4]; read-out: Vss): 0.8 ± 0.5 L/kg
- Inhibition (%), Glutamate, Kainate (Glutamate, Kainate): 0%
- inhibition at 10 µM (Adrenergic α1B): 14%
- alleviation of mechanical allodynia (von Frey) ([5]; CN016 5 mg/kg IP 1 h prior to paclitaxel 4.5 mg/kg): only moderately alleviated
- alleviation of paclitaxel-induced mechanical allodynia (von Frey) ([5]; CN016 10 or 20 mg/kg IP 1 h prior to paclitaxel 4.5 mg/kg): able to alleviate
- inhibition at 10 µM (Opiate δ1 (OP1, DOP)): 6%
- inhibition at 10 µM (Dopamine D2S): 3%
